Where “and” joins values, the source holds several entries; their conditions need not be identical. Equal entries are not always repeated.
Experiments:
[1] = Effect of pH on drug penetration through normal untreated hairless mouse skin (Example V A); assay type: in vitro ADME
[2] = Effect of pH on drug penetration through hairless mouse skin pretreated with papain (Example V B); assay type: in vitro ADME; settings: sigma papain 0.093 mg/ml for 24 hours
Source text: B. Effect of pH on drug penetration through hairless mouse
skin Pretreated with sigma papain of concentration 0.093

SMILES: CC(=O)CC(c1ccccc1)c1c(O)c2ccccc2oc1=O (centres unmarked) [Warfarin]
- J (flux) ([1]; pH 5.9): 1.66 × 10^-8 mg/cm^2 /sec
- J (flux) ([1]; pH 6.6): 9.16 × 10^-9 mg/cm^2 /sec
- J (flux) ([1]; pH 7.4): 4.68 × 10^-9 mg/cm^2 /sec
- J (flux) ([1]; pH 8.0): 4.73 × 10^-9 mg/cm^2 /sec and 4.73 × 10^-8 mg/cm^2 /sec
- J (flux) ([2]; pH 5.9): 1.27 × 10^-7 mg/cm^2 /sec
- J (flux) ([2]; pH 6.6): 1.20 × 10^-7 mg/cm^2 /sec
- J (flux) ([2]; pH 7.4): 0.99 × 10^-7 mg/cm^2 /sec
- J (flux) ([2]; pH 8.0): 1.21 × 10^-7 mg/cm^2 /sec

— patent US5534260A, “Percutaneous drug delivery system” (priority 1994, dated 1996)
